{"sequences": {"note": "The chains behind the UniProt entries cited, without tags or fusion partners.", "UniProt P00533, whole entry": "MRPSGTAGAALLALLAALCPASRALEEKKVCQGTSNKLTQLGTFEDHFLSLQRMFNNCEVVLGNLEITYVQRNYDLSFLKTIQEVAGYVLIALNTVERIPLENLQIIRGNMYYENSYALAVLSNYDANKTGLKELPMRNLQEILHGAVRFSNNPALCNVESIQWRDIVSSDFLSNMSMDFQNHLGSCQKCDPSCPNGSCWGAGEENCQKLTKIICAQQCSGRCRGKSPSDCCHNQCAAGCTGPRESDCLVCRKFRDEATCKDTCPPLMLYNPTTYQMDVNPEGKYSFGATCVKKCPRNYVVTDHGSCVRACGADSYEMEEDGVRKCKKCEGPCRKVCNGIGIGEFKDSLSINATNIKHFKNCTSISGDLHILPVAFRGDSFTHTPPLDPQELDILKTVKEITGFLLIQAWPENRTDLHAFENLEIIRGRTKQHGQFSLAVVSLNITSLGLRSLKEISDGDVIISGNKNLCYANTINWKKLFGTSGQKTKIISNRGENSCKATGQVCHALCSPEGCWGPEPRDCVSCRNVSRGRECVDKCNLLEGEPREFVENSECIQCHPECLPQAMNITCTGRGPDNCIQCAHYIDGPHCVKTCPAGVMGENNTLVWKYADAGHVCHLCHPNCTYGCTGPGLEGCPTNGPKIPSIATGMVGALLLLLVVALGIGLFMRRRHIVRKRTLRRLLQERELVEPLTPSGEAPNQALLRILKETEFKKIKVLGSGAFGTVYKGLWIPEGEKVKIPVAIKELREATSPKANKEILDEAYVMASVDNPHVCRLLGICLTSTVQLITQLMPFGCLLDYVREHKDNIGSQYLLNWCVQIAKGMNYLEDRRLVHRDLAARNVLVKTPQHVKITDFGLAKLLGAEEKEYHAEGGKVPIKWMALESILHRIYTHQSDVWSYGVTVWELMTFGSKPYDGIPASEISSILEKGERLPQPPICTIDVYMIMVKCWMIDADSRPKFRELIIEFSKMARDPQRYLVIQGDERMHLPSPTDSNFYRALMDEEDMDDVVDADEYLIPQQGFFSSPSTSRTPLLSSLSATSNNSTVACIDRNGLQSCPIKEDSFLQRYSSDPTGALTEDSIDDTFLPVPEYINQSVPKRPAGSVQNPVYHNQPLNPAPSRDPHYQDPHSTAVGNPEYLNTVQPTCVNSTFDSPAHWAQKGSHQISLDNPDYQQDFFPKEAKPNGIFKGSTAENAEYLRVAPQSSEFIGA"}, "source": "ChEMBL document CHEMBL4382291", "about": "“Aminopyrazole Carboxamide Bruton's Tyrosine Kinase Inhibitors. Irreversible to Reversible Covalent Reactive Group Tuning” (ACS Med Chem Lett, 2019)", "molecular_target": "Epidermal growth factor receptor (Homo sapiens, UniProt P00533)"}
{"smiles": "NC(=O)c1c(-c2ccc(Oc3ccc(F)cc3F)cc2)nn([C@@H]2CCCN(C(=O)/C=C/C(F)F)C2)c1N", "values": [{"measurement": "IC50", "value": 274, "unit": "nM"}]}
